These results are taken from publication PMC4097020 (Psychopharmacology, 2014).

By UniProt entry, the sequences of proteins in these tests, tags left out.
UniProt P35462, whole entry: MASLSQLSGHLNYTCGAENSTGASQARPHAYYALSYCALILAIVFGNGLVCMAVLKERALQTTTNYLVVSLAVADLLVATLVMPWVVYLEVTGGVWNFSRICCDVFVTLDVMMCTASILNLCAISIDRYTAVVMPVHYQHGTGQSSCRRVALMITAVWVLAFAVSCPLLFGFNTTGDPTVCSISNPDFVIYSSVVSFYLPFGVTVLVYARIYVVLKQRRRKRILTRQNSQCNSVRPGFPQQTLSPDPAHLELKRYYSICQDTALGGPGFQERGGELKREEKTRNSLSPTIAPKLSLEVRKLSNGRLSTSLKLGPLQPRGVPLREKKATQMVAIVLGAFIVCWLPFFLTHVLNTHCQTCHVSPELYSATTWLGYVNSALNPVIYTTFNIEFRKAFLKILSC

One may read the Ki as a dissociation constant, usually derived from enzyme kinetics or from competition with a known ligand.

Structures are written as SMILES.

The assay has as its target recombinant human D3 receptor (Homo sapiens, UniProt P35462). The experiment in a line: [3H]YM 09151-2 binding to CHOp-D3 cells.

On to `CN1CCc2cc(Cl)c(O)cc2C(c2ccccc2)C1` (stereo not shown) [SCH23390, 7-chloro-3-methyl-1-phenyl-1,2,4,5-tetrahydro-3-benzazepin-8-ol], for which the Ki is 1920 ± 580 nM.
